Laboratory results published in patent US20240199613A1 (TAKEDA PHARMACEUTICAL COMPANY LIMITED, priority 2021, published 2024).

Amino acid sequences for entries named in this document (tags omitted). Residues count along the entry.
UniProt P03952, 391-638 limits assumed: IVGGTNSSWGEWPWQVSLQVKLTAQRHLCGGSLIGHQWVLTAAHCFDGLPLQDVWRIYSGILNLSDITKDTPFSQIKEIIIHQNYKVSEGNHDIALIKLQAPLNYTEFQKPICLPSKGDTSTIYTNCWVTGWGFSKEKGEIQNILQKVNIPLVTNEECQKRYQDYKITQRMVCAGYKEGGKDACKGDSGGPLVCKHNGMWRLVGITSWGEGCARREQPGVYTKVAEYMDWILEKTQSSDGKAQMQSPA
UniProt P03952, 20-390 partner limits assumed: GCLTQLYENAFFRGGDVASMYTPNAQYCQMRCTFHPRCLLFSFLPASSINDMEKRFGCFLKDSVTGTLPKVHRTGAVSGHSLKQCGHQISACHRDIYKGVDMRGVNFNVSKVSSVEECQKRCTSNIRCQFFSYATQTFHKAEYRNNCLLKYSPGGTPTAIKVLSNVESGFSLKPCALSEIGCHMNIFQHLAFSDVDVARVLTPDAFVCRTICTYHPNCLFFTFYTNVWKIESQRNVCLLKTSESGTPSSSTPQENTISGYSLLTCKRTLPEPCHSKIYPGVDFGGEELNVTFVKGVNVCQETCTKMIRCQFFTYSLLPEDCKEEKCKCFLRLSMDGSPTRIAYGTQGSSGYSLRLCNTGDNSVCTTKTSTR

Assays:
[1] = biological target: human activated kallikrein enzyme (Homo sapiens, UniProt P03952); test: Inhibition of activated plasma kallikrein, fluorogenic peptide substrate (PFR-AMC) assay, 500 pM enzyme format; conditions: read-out: Primary Dose Response Assay: Average EC50; 500 pM activated kallikrein, 300 uM PFR-AMC, 30 min preincubation, 10 min reaction, room temperature
Experimental: Compounds were evaluated for inhibition of the human activated kallikrein enzyme in two formats of an assay employing a fluorogenic peptide substrate. In one assay format, the concentrations of reagents were as follows: 20 mM Tris pH 7.5, 1 mM EDTA, 150 mM sodium chloride, 0.1% PEG-400, 0.1% Triton X-100, 500 pM activated kallikrein enzyme, 300 uM Pro-Phe-Arg-7-amido-4-methylcoumarin (PFR-AMC) substrate. Prior to reaction initiation with substrate, enzyme and inhibitors were preincubated for 30 min at room temperature. After initiation with substrate, reactions were incubated for 10 min at room temperature and fluorescence emission at 460 nm from 380 nm excitation measured with a microplate reader. In another assay format, the concentrations of reagents were as follows: 20 mM Tris pH 7.5, 1 mM EDTA, 150 mM sodium chloride, 0.1% PEG-400, 0.1% Triton X-100, 5 pM activated kallikrein enzyme, 300 uM PFR-AMC substrate. Prior to reaction initiation with substrate, enzyme and inhibitors were preincubated for 30 min at room temperature. After initiation with substrate, reactions were incubated for 18 hr at room temperature and fluorescence emission at 460 nm from 380 nm excitation measured with a microplate reader.
Table 6 provides the results of the assay in the format with 500 pM activated kallikrein assay. For the compounds listed in Table 6, the EC50 values are reported according to the following ranges: A≤1.0 nM; 1.0 nM<B≤10 nM; 10 nM<C≤100 nM; 100 nM<D≤6500 nM; 6500 nM<E.

plasma kallikrein = plasma kallikrein (Homo sapiens, UniProt P03952); test: Neat human plasma assay: contact pathway-activated (FXIIa) plasma, PFR-AMC substrate; conditions: read-out: Human Plasma Assay: IC90; citrated human plasma (78% final), 10 nM human FXIIa, 100 μM PFR-AMC, room temperature
Experimental: To analyze inhibition of plasma kallikrein in an ex vivo setting, the potency of compounds was measure in contact pathway-activated plasma assays. In a fluorogenic peptide substrate assay, test compounds dissolved in DMSO were added to sodium citrate collected human or rat plasma in a 96-well microplate. Alternatively, citrated plasma was collected from rats administered the compounds orally or by IV. 10 nM of human FXIIa (Enzyme Research Laboratories) diluted in pKal buffer (20 mM Tris-HCl, pH 7.5, 150 mM NaCl, 1 mM EDTA, 0.1% PEG-8000, and 0.1% Triton X-100) was added to the plasma, followed by the 100 μM of the profluorescent, synthetic plasma kallikrein substrate PFR-AMC (also diluted in pKal buffer). Final plasma concentration in the reaction was 78%. Fluorescence was immediately monitored by excitation/emission wavelengths of 360 nm/480 nm respectively over a period of 5 minutes in a microplate reader. The resulting linear increase in fluorescence emission (reflecting pKal proteolysis of PFR-AMC substrate) was fit to extract a proteolytic rate (fluorescent units over time), and this rate was subsequently plotted against compound inhibitor concentration. Resulting plots were fit to a standard 4-parameter IC50/IC90 equation to determine min/max values, IC50/90, and slope. All experimental steps were performed at room temperature.
For the compounds listed in Table 7, the IC90 values are reported according to the following ranges: A≤400 nM; 400 nM<B≤1,500 nM; 1,500 nM<C≤10,000 nM; 10,000 nM<D≤22,000 nM.

EC50 [1] | IC90 (plasma kallikrein) | Compound
1 to 10 nM | < 400 nM | Cc1ccnc(C2CC2c2cc(N3CCOCC3)c3ccc(NCc4cn5cc(C6CC6)cc(N6CC(=O)N(C)C6=O)c5n4)cc3n2)n1 (single isomer, unassigned) [Example 42]
< 1 nM | < 400 nM | COc1cc(C2CC2c2nccc(C)n2)nc2cc(NCc3cn4cc(C5CC5)cc(N5CC(=O)N(C)C5=O)c4n3)ccc12 (single isomer, unassigned) [Example 23]
1 to 10 nM | – | COc1cc(C2CC2c2nccc(C)n2)nc2cc(NCc3cn4cc(C5CC5)cc(N5CC(=O)N(C)C5=O)c4n3)ccc12 (single isomer, unassigned) [Example 22]
< 1 nM | < 400 nM | Cc1ccnc(C2CC2c2cc(N3CCOCC3)c3ccc(NCc4cn5cc(C6CC6)cc(N6CC(=O)N(C)C6=O)c5n4)cc3n2)n1 (single isomer, unassigned) [Example 41]
